Measured values taken from article PMC12207880 (The Oncologist, 2025).

Experiment: Phase I trial: plasma pharmacokinetics of SPH3643 after single and multiple dosing of SPH4336
Assay type: in vivo, human
Settings: for dose proportionality of plasma exposure (Cmax, AUC0-last): 50-600 mg
[1] = single dose, doses of 50-600 mg, range over cohorts

Cc1nc2c(F)cc(-c3nc(Nc4ccc5c(n4)CCN(CCN(C)C)C5)ncc3F)cc2n1C1CC1
dose proportionality of plasma exposure (Cmax, AUC0-last): increased proportionally within the range of ~50-400 mg but did not increase further at 600 mg; also recorded: increased proportionally within the range of 50-400 mg, except at 600 mg
dose proportionality of plasma exposure (Cmax, AUC0-last) (listed as SHP4336): increased proportionally with a dose ranging from 50 to 400 mg, but it did not increase from 400 to 600 mg
Ctrough (multiple dosing 400 mg QD, n=7, geometric mean (variation %)): 58.2 (37.5%, n=7) ng/mL
geometric mean terminal t1/2 [1]: 52.8 to 72.3 h
median Tmax [1]: 10.0 to 47.8 h

Entries after “also recorded” stand apart in the source; their conditions may differ.
